# In patent US7332519B2, “Spirocyclic cyclohexane compounds” (dated 2008):
# Protein sequences, listed by entry. Tags and fused reporters are not part of them.
# UniProt P35372, whole entry: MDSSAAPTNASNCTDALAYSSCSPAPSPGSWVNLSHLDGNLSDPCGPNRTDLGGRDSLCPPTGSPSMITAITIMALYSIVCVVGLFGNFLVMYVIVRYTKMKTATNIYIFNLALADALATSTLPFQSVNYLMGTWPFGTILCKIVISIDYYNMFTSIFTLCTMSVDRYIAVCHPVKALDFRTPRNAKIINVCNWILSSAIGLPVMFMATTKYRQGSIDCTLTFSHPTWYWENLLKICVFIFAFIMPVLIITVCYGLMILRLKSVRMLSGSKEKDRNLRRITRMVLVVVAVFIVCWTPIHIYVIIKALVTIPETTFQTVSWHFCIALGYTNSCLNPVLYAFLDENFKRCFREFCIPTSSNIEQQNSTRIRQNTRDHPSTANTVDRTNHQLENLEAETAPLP
# UniProt P41146, whole entry: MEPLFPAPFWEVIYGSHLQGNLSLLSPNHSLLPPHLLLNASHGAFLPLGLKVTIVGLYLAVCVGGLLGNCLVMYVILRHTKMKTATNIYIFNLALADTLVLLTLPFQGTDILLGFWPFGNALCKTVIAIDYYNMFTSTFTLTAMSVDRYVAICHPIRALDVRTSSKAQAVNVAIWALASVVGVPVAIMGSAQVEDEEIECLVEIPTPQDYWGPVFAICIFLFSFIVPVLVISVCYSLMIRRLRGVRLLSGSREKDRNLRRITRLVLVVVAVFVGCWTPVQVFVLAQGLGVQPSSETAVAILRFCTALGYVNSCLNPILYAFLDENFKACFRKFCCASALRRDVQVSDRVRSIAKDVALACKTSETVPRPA
# Columns and labels:
# human μ-opiate receptor = human μ-opiate receptor (Homo sapiens, UniProt P35372); assay: Measurement of the μ-bond, [3H]-Naloxon displacement, membrane preparation of CHO-K1 cells expressing the receptor; conditions: read-out: ORμ_Nal Ki, Cheng-Prusoff conversion
# Experimental: Measurement of the μ-Bond
# The receptor affinity for the human g-opiate receptor was determined in a homogeneous mixture in microtitre plates. For this purpose, dilution series of the respective substituted spirocyclic cyclohexane compound to be tested were incubated with a receptor membrane preparation (15-40 μg protein per 250 μl incubation mixture) of CHO-K1 cells, which express the human μ-opiate receptor (RB-HOM receptor membrane preparation from NEN, Zaventem, Belgium) in the presence of 1 umole/liter of the radioactive ligand [^3H]-Naloxon (NET719, NEN, Zaventem, Belgium) and 1 mg WGA-SPA-beads (Wheat germ agglutinin SPA beads from Amersham/Pharmacia, Freiburg, Germany) in a total volume of 250 μl for 90 minutes at room temperature. 50 mmole/liter tris-HCl were added as incubation buffer with 0.05% by weight sodium azide and 0.06% by weight bovine serum albumin. 25 μmole/liter naloxon were also added to determine the non-specific bond. At the end of the 90 minute incubation period, the microtitre plates were centrifuged off for 20 minutes at 1000 g, and the radioactivity was measured in a β-counter (Microbeta-Trilux, PerkinElmer Wallac, Freiburg, Germany). The percentage displacement of the radioactive ligand from its bond with the human μ-opiate receptor at a concentration of the test substances of 1 μmole/liter was determined and given as a percentage inhibition (% inhibition) of the specific bond. IC50 inhibition concentrations, which bring about a 50% displacement of the radioactive ligand, were in some cases calculated by taking as a basis the percentage displacement by various concentrations of the compounds of general formula I to be tested. Ki values for the test substances were obtained by conversion using the Cheng-Prusoff equation.
# mouse = assay: Analgesia test in the tail flick test in the mouse
# Excerpt: Analgesia Test in the Tail Flick Test in the Mouse
# The mice were each placed individually into a test cage, and the base of the tail was exposed to the focused heat ray of an electric lamp (tail-flick type 50/08/1.bc, Labtec, Dr. Hess). The intensity of the lamp was adjusted so that the time from switching on of the lamp to the sudden twitching away of the tail (latency of pain) in untreated mice was from 3 to 5 seconds. Before administration of the solutions comprising the compound according to the invention or of the particular comparison solutions, the mice were pre-tested twice over the course of five minutes, and the mean of those measurements was calculated as the pre-test mean.
# The solutions of the compound of the general formula I according to the invention and the comparison solutions were then administered intravenously. Pain measurement was carried out in each case 10, 20, 40 and 60 minutes following the intravenous administration. The analgesic activity was determined as the increase in the latency of pain (% of the maximum possible antinociceptive effect) according to the following formula: [(T1−T0)/(T2−T0)]×100 where time T0 is the latency before administration, time T1 is the latency after administration of the active ingredient combination and time T2 is the maximum exposure time (12 seconds).
# Place preference = conditions: compared to selective μ-opioids such as morphine
# Excerpt: Example 7 induces muscle relaxation and anesthesia in mice at higher doses.
# ORL1 receptor = ORL1 receptor (Homo sapiens, UniProt P41146); assay: Measurement of ORL1 binding, 3H-nociceptin/orphanin FQ receptor binding assay with membranes of recombinant CHO-ORL1 cells; conditions: read-out: ORL1 Ki, 0.5 nM 3H-nociceptin/orphanin FQ
# Experimental: Measurement of ORL1 Binding
# The 4-aminocyclohexanol compounds of formula I were investigated in a receptor binding assay with ^3H-nociceptin/orphanin FQ with membranes of recombinant CHO-ORL1 cells. This test was conducted in accordance with the method described by Ardati et al. (Mol. Pharmacol., 51, 1997, p. 816-824). The concentration of ^3H-nociceptin/orphanin FQ in these experiments was 0.5 nM. The binding assays were carried out with 20 μg amounts of membrane protein per 200 μl batch in 50 mM Hepes, pH 7.4, 10 mM MgCl2 and 1 mM EDTA. The binding to the ORL1 receptor was determined using respective 1 mg amounts of WGA-SPA beads (Amersham-Pharmacia, Freiburg), by incubation of the batch for one hour at room temperature and subsequent measurement in a Trilux scintillation counter (Wallac, Finland). The affinity is given as the Ki value.
SMILES,Ki (human μ-opiate receptor) [nM],"Tail Flick (mouse, i.v.) ED50 (mouse) [mg/kg]",place preference (Place preference),Ki (ORL1 receptor) [nM]
CN(C)C1(c2ccsc2)CCC2(CC1)OCCc1c2[nH]c2ccccc12 (stereo not shown),0.12,–,–,–
CN(C)C1(c2cccs2)CCC2(CC1)OCCc1c2[nH]c2ccc(F)cc12 (stereo not shown),0.09,0.028,–,–
CN(C)C1(c2cccs2)CCC2(CC1)OCCc1c2[nH]c2ccccc12 (stereo not shown),0.27,0.0035,reduced place preference,0.56
